35 compounds from PubChem BioAssay AID1565 (Sanford-Burnham Center for Chemical Genomics, 2009) can be followed below.

Amino acid sequences for entries named in this document (tags omitted). A change or cut given only in a name is not applied to a line headed by its entry.
UniProt Q8TCT1: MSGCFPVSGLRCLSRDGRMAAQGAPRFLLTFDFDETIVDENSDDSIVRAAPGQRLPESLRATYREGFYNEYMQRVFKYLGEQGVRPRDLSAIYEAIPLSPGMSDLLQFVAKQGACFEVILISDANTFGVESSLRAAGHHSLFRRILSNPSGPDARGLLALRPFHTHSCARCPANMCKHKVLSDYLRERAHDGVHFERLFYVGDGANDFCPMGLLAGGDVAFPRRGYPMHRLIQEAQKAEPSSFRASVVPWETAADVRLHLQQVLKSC

As usually defined, the inhibition is the drop in the measured response relative to a control, in per cent.

The structures appear in SMILES notation. This is a selection; strong and weak results do not stand in their true shares. Calls of active or inactive are those of the source. No stated cut-off is given here; in the data, active means inhibition above about 60%; inactive means the rest.

The target of the test is Phosphoethanolamine/phosphocholine phosphatase (Homo sapiens) (UniProt Q8TCT1). Nature of the test: PubChem AID 1565. The note with it: recombinant PHOSPHO1, absorbance phosphatase assay; at 13.3 µM; active compounds read high.
With `Cc1ccc(NP(=O)(Oc2ccccc2F)Oc2ccccc2F)nc1`, the inhibition was inactive: 50.9%.
Regarding `O=C(O)c1ccccc1[As](=O)(O)O`, the inhibition was inactive: 25.4%.
As for `CC(=O)Nc1ccc([As](=O)(O)O)cc1`, the inhibition is inactive: 50.8%.
For `O=P(Nc1nc2ccc(Cl)cc2s1)(c1ccccc1)c1ccccc1`, the inhibition is inactive: -18.3%.
For `CCN(N=Nc1nonc1N)c1nonc1N` the value was inactive: 9.1%.
Consider `Nc1cccc2ccc([As](=O)(O)O)cc12`, for which the inhibition is inactive: -8.5%.
As to `O=[N+]([O-])c1cc([N+](=O)[O-])c(CCN2CCOCC2)c([N+](=O)[O-])c1`, the inhibition is inactive: 32.6%.
Consider `COc1ccccc1OP(=O)(Nc1ccc(C)cn1)Oc1ccccc1OC`, for which the inhibition is inactive: 40.7%.
Turning to `Cc1ccc(OP(=O)(Nc2nccs2)Oc2ccc(C)cc2)cc1`, the inhibition is inactive: 45.9%.
In the case of `Clc1ccc(Cl)c(NC2=NCC(CBr)S2)c1` (stereo not given), the inhibition was inactive: 17.5%.
For `CN1CCCC(OC(=O)C(c2ccccc2)c2ccccc2)C1` (stereo not given), the inhibition was inactive: -6.8%.
In the case of `NC(=O)c1cc([N+](=O)[O-])cc([N+](=O)[O-])c1N`, the inhibition was inactive: 40.5%.
For `Cc1ccc(N/C(=N/P(=O)(N2CCOCC2)N2CCOCC2)N2CCOCC2)cc1` the value was inactive: 16.1%; for `CC(C)CC(=O)NC(Sc1ccc(Cl)cc1)C(Cl)(Cl)Cl` (stereo not given), inactive: 35.8%; for `Nc1cc(N)c2nonc2c1[N+](=O)[O-]`, inactive: 12.9%.
For `Oc1ccccc1CNc1ccccn1` the value was inactive: 11.3%; for `Cc1c2non([O-])c-2c(C)[n+](=O)[n+]1[O-]`, inactive: 4.6%; for `O=C(NC(Sc1ccncn1)C(Cl)(Cl)Cl)c1ccccc1` (stereo not given), inactive: -14.8%.
For the compound `CC(=O)N1C2C3N(C(C)=O)C1C1N(C(C)=O)C(C(N1C(C)=O)N3C(C)=O)N2C(C)=O`, the inhibition was inactive: 41.7%.
With `O=[N+]([O-])c1cccc2n[nH]nc12`, the inhibition is inactive: 4.2%.
For the compound `Cc1ccc(NP(=O)(Oc2ccccc2)Oc2ccccc2)nc1`, the inhibition was inactive: 31.9%.
As to `O=[N+]([O-])c1cc([N+](=O)[O-])c(CCNc2ccccc2)c([N+](=O)[O-])c1`, the inhibition was inactive: -10%.
As to `CCc1nc2c(n1)c1c(non1O)c1c2no[n+]1[O-]`, the inhibition is inactive: 11.1%.
Consider `COc1ccc(C2=NCC(CBr)S2)cc1` (stereo not given), for which the inhibition is inactive: 24.1%.
For `CC(C)=N/N=C(\N)N[N+](=O)[O-]`, the inhibition was inactive: 20.3%.
Take `CN(C)C(=O)OCCc1n(C)cc[n+]1C`: the inhibition is inactive: -15.9%.
`CC1CCN(C(=O)Oc2c(Cl)cc(Cl)c3cccnc23)CC1`: the inhibition is inactive: -9.3%.
Take `Nc1ccc([As](=O)(O)c2ccc(N)cc2)cc1`: the inhibition is inactive: 29%.
With `C[N+]1=C2C=CC=CC=C2SC12C([N+](=O)[O-])=CC([N+](=O)[O-])=C[C-]2[N+](=O)[O-]` (stereo not given), the inhibition was inactive: -92.9%.
For `CCN(/C(=N/P(=O)(N1CCOCC1)N1CCOCC1)N1CCOCC1)c1ccc(OC)cc1` the value was inactive: -11.6%; for `O=C(Nc1cc([As](=O)(O)O)ccc1O)c1ccccc1`, inactive: 29.8%.
For the compound `O=[N+]([O-])c1cccc(NC2=NCC(CBr)S2)c1` (stereo not given), the inhibition was inactive: -69.4%.
For `O=C(O)CNc1ccc([As](=O)(O)O)cc1`, the inhibition was inactive: 32.7%.
With `CC(C)(C)C(=O)NC(Sc1ccncn1)C(Cl)(Cl)Cl` (stereo not given), the inhibition was inactive: -151%.
The result for `O=[N+]([O-])c1ncn(CCn2ncnc2[N+](=O)[O-])n1` reads inactive: 8%.
